## AlphaSeq binding of Ab-95 light chain variants to a spike HR2 peptide

The measurements come from Engelhart et al. 2022 (doi:10.1038/s41597-022-01779-4) through the FLAb antibody collection.

Target peptide (SARS-CoV-2 spike, HR2 region): PDVDLGDISGINAS

Each scFv is VH, three GGGGS repeats, VL, as in the parent Ab-95, and differs from it in the CDRs of the light chain only.
VH: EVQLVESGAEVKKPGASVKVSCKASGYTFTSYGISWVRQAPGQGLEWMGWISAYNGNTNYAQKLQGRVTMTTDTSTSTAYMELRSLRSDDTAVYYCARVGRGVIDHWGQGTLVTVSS
VL: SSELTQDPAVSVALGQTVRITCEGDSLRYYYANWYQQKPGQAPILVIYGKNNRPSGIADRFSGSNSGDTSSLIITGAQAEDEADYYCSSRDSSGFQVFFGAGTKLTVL

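AAYL52 was designed without a model: most single CDR substitutions and a random sample of double and triple ones. The assay is AlphaSeq: two haploid yeast populations carry antibody and antigen on their surface. Pairs that bind mate more often; barcode pairs of the diploids are counted by sequencing. Scores were corrected for input abundance and mapped to Kd with protein pairs of known affinity run in the same pool. Each pool was mated in three replicate cultures.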

Substitutions are numbered in sequence along the VL above, starting at 1 (not Kabat).
This list gathers variants with a substitution at S93 (VL, numbered from residue 1).
Affinities are written as log10 Kd with Kd in nM; a lower number is a better binder.
The mean shown is taken over the replicates in which the pair was detected.
Where no diploid with the target was found in any replicate, the entry reads "nd": below detection, most likely a poor binder, though not proof of it.
Empty control strains, which show no peptide, gave a signal in 28% of pairings with library AAYL52; the median was 3.91 and 95% of these signals were weaker than 2.90. No background was subtracted. Also given: how often the same scFv was detected with the empty control strains.
For reference, the parent read 2.31 as the reference entry and 2.25 as a member of this library.

* A32V S93A Q96R: 3.35 (2 of 3 replicates; controls 2 of 9)
* S93M G94Q: 2.25 (1 of 3 replicates; controls 0 of 9)
* D25I A32S S93A: 3.24 (2 of 3 replicates; controls 2 of 9)
* G24D Y30I S93T: nd (0 of 3 replicates; controls 2 of 9)
* S55M S89Y S93W: 4.76 (2 of 3 replicates; controls 1 of 9)
* Y31V S88I S93P: 4.46 (2 of 3 replicates; controls 3 of 9)
* K50Q N51M S93A: 2.44 (3 of 3 replicates; controls 4 of 9)
* P54H S93E Q96T: 3.17 (2 of 3 replicates; controls 6 of 9)
* R28S S88V S93C: nd (0 of 3 replicates; controls 0 of 9)
* R90T S92C S93V: nd (0 of 3 replicates; controls 1 of 9)
* S26Q Y29K S93F: nd (0 of 3 replicates; controls 2 of 9)
* D91I S93D G94W: 2.86 (3 of 3 replicates; controls 0 of 9)
* Y29E S93K F95W: 3.13 (1 of 3 replicates; controls 1 of 9)
* D25F L27R S93C: 2.58 (3 of 3 replicates; controls 5 of 9)
* Y30I N33E S93K: nd (0 of 3 replicates; controls 0 of 9)
* N51T S93R Q96W: 4.57 (1 of 3 replicates; controls 1 of 9)
* N33K R53M S93R: nd (0 of 3 replicates; controls 2 of 9)
* S93D Q96K F98R: nd (0 of 3 replicates; controls 0 of 9)
* Y31C S89E S93A: 3.48 (2 of 3 replicates; controls 2 of 9)
* D25L S93E Q96F: 3.33 (3 of 3 replicates; controls 7 of 9)
* R28Q S93R G94F: 3.95 (3 of 3 replicates; controls 7 of 9)
* Y31M S93G F98D: 3.35 (2 of 3 replicates; controls 2 of 9)
* R28V D91Y S93T: 3.29 (2 of 3 replicates; controls 5 of 9)
* D91V S93V F98G: 2.77 (2 of 3 replicates; controls 1 of 9)
* D91K S93D: 2.25 (3 of 3 replicates; controls 4 of 9)
* S88F D91G S93A: 1.98 (3 of 3 replicates; controls 2 of 9)
* S26M S93R F98H: 3.78 (1 of 3 replicates; controls 4 of 9)
* S26T S88N S93E: 2.69 (1 of 3 replicates; controls 4 of 9)
* Y30N S93C F98I: 1.36 (3 of 3 replicates; controls 1 of 9)
* G49D S89M S93V: 3.32 (1 of 3 replicates; controls 2 of 9)
* S55F S89W S93R: nd (0 of 3 replicates; controls 0 of 9)
* Y29S N52G S93Y: 2.36 (3 of 3 replicates; controls 3 of 9)
* L27N N51L S93W: 3.07 (3 of 3 replicates; controls 6 of 9)
* R90C S92Q S93G: 2.68 (3 of 3 replicates; controls 3 of 9)
* Y30K N33H S93F: 4.88 (2 of 3 replicates; controls 6 of 9)
* S88Y S93Y V97H: 2.96 (3 of 3 replicates; controls 2 of 9)
* D91V S93V: 1.65 (3 of 3 replicates; controls 7 of 9)
* R28W S93D: 3.71 (3 of 3 replicates; controls 6 of 9)
* K50E S93G: 1.57 (3 of 3 replicates; controls 2 of 9)
* Y30D N52K S93A: 2.38 (3 of 3 replicates; controls 0 of 9)
* R28A S89C S93F: nd (0 of 3 replicates; controls 1 of 9)
* G49C N51P S93Y: 4.34 (2 of 3 replicates; controls 1 of 9)
* A32T S93M F98R: 2.62 (3 of 3 replicates; controls 4 of 9)
* S26M R53H S93F: 3.68 (3 of 3 replicates; controls 1 of 9)
* S89N S93I V97G: 3.41 (2 of 3 replicates; controls 2 of 9)
* L27I N52D S93G: 3.56 (3 of 3 replicates; controls 2 of 9)
* S26R P54W S93G: 4.22 (2 of 3 replicates; controls 1 of 9)
* E23L N51K S93L: 4.60 (1 of 3 replicates; controls 2 of 9)
* Y29N S93H Q96G: 1.81 (3 of 3 replicates; controls 4 of 9)
* E23T S93A F98T: 3.81 (3 of 3 replicates; controls 2 of 9)
* S93A: 2.35 (3 of 3 replicates; controls 4 of 9)
* K50W S93Q F98P: 4.58 (2 of 3 replicates; controls 1 of 9)

A selection of 7 entries from above:

* D25F L27R S93C: 2.58 (3 of 3 replicates; controls 5 of 9)
* S88F D91G S93A: 1.98 (3 of 3 replicates; controls 2 of 9)
* S93M G94Q: 2.25 (1 of 3 replicates; controls 0 of 9)
* D25L S93E Q96F: 3.33 (3 of 3 replicates; controls 7 of 9)
* Y29E S93K F95W: 3.13 (1 of 3 replicates; controls 1 of 9)
* P54H S93E Q96T: 3.17 (2 of 3 replicates; controls 6 of 9)
* R28W S93D: 3.71 (3 of 3 replicates; controls 6 of 9)